Patent publication US20210230178A1, “TRIOXACARCIN ANALOGS AND DIMERS AS POTENT ANTICANCER AGENTS” (William Marsh Rice University, priority 2017, published 2021)

Experiments:
[1] = tested on: MES SA (human uterine sarcoma); assay: In vitro cytotoxicity assay (72 hour killing assay, CellTiter-Glo), MES SA; conditions: read-out: IC50 MES SA, 50% inhibitory concentration against cell growth
[2] = tested on: HEK 293T (human embryonic kidney cancer cell line); assay: In vitro cytotoxicity assay (72 hour killing assay, CellTiter-Glo), HEK 293T; conditions: read-out: IC50 HEK 293T, 50% inhibitory concentration against cell growth
[3] = tested on: MES SA DX (human uterine sarcoma cell line with marked multidrug resistance); assay: In vitro cytotoxicity assay (72 hour killing assay, CellTiter-Glo), MES SA DX; conditions: read-out: IC50 MES SA DX, 50% inhibitory concentration against cell growth, multidrug resistant line

Measured: IC50

DC-45-A2
> 2.5 µM: all assays above
